Test results as given in US20130260436A1, “Methods of Identifying and Characterizing Natural Product Gene Clusters” (Victoria LInk Limited, priority 2010, published 2013).
pIC50: −log10 of the molar value.

Target: all three PPTases
Assay: BpsA coupled PPTase inhibition assay, summary over all three PPTases
Conditions: read-out: IC50 values, range over the three PPTases; CoA concentration set at 1.25 μM

O=Nc1ccc2oc(=O)ccc2c1 [6-NOBP]
pIC50: 5.40 to 5.68
